Data from patent US20240360082A1, “SUBSTITUTED PYRIDONE COMPOUNDS USEFUL TO TREAT ORTH[…]” (priority 2021, published 2024).

System: influenza virus (multiple flu strains)
Experiment: organism not typed
Conditions: MDCK
[1] = read-out: NA Alaska H3N2 IC50, NA assay, Alaska H3N2 strain
[2] = read-out: NA CAL H1N1 IC50, NA assay, CAL H1N1 strain
[3] = read-out: NA—PR8 H1N1, NA assay, PR8 H1N1 strain
[4] = read-out: NA Alaska H3N2, NA assay, Alaska H3N2 strain
[5] = read-out: NA CAL H1N1, NA assay, CAL H1N1 strain

Row | Compound | IC50 [1] [nM] | IC50 [2] [nM] | IC50 [3] [nM] | IC50 [4] [nM] | IC50 [5] [nM]
1 | NC(=O)c1cc(-c2ccc(OCC3COCCO3)c(F)c2)c(C(F)(F)F)[nH]c1=O (stereo not drawn) [Example 239, 5-(4-((1,4-dioxan-2-yl)methoxy)-3-fluorophenyl)-2-oxo-6-(trifluoromethyl)-1,2-dihydropyridine-3-carboxamide] | 100 to 1000 | 1000 to 5000 |  |  | 
2 | COCOc1ccc(-c2cc(C(N)=O)c(=O)[nH]c2C(F)(F)F)cc1 [Example 13, 5-(4-(methoxymethoxy)phenyl)-2-oxo-6-(trifluoromethyl)-1,2-dihydropyridine-3-carboxamide] |  |  | 1000 to 5000 |  | 
3 | COc1cc(COc2ccc(-c3cc(C(N)=O)c(=O)[nH]c3C(F)(F)F)cc2)ccn1 [Example 106, 5-(4-((2-methoxypyridin-4-yl)methoxy)phenyl)-2-oxo-6-(trifluoromethyl)-1,2-dihydropyridine-3-carboxamide] |  |  |  | 100 to 1000 | 1000 to 5000
4 | CN1CCOCC1COc1ccc(-c2cc(C(N)=O)c(=O)[nH]c2C(F)(F)F)cc1 (stereo not drawn) [Example 247, 5-(4-((4-methylmorpholin-3-yl)methoxy)phenyl)-2-oxo-6-(trifluoromethyl)-1,2-dihydropyridine-3-carboxamide] | 100 to 1000 | 1000 to 5000 |  |  | 
5 | NC(=O)c1cc(-c2ccc(OCC3CN(CC(F)F)CCO3)cc2)c(C(F)(F)F)[nH]c1=O (stereo not drawn) [Example 192, 5-(4-((4-(2,2-difluoroethyl)morpholin-2-yl)methoxy)phenyl)-2-oxo-6-(trifluoromethyl)-1,2-dihydropyridine-3-carboxamide] |  |  |  | 100 to 1000 | 10000 to 25000
6 | NC(=O)c1cc(-c2ccc(OCc3cnc(NC4COC4)nc3)cc2)c(C(F)(F)F)[nH]c1=O [Example 165, 5-(4-((2-(oxetan-3-ylamino)pyrimidin-5-yl)methoxy)phenyl)-2-oxo-6-(trifluoromethyl)-1,2-dihydropyridine-3-carboxamide] |  |  |  | 100 to 1000 | 1000 to 5000
7 | CS(=O)(=O)C1(COc2ccc(-c3cc(C(N)=O)c(=O)[nH]c3C(F)(F)F)cc2)CC1 [Example 252, 5-(4-((1-(methylsulfonyl)cyclopropyl)methoxy)phenyl)-2-oxo-6-(trifluoromethyl)-1,2-dihydropyridine-3-carboxamide] | 100 to 1000 | 1000 to 5000 |  |  | 
8 | NC(=O)c1cc(-c2ccc(OCc3cncnc3)cc2)c(C(F)(F)F)[nH]c1=O [Example 82, 2-oxo-5-(4-(pyrimidin-5-ylmethoxy)phenyl)-6-(trifluoromethyl)-1,2-dihydropyridine-3-carboxamide] |  |  |  | 100 to 1000 | 100 to 1000
9 | NC(=O)c1cc(-c2ccc(OC[C@@H]3CO[C@@H](CO)CO3)cc2)c(C(F)(F)F)[nH]c1=O [Example 204, 5-(4-(((2S,5S)-5-(hydroxymethyl)-1,4-dioxan-2-yl)methoxy)phenyl)-2-oxo-6-(trifluoromethyl)-1,2-dihydropyridine-3-carboxamide] |  |  |  | 5000 to 10000 | 
10 | NC(=O)c1cc(-c2ccc(OCc3ccnnc3)cc2)c(C(F)(F)F)[nH]c1=O [Example 84, 2-oxo-5-(4-(pyridazin-4-ylmethoxy)phenyl)-6-(trifluoromethyl)-1,2-dihydropyridine-3-carboxamide] |  |  |  | 1000 to 5000 | 10000 to 25000
11 | CN1C(COc2ccc(-c3cc(C(N)=O)c(=O)[nH]c3C(F)(F)F)cc2)COCC1(C)C (stereo not drawn) [Example 207, 2-oxo-6-(trifluoromethyl)-5-(4-((4,5,5-trimethylmorpholin-3-yl)methoxy)phenyl)-1,2-dihydropyridine-3-carboxamide] |  |  |  | 100 to 1000 | 100 to 1000
12 | COc1ccc(-c2cc(C(N)=O)c(=O)[nH]c2C(F)(F)F)cc1Cl [Example 18, 5-(3-chloro-4-methoxyphenyl)-2-oxo-6-(trifluoromethyl)-1,2-dihydropyridine-3-carboxamide] |  |  | 1000 to 5000 |  | 
13 | NC(=O)c1cc(-c2ccc(OCC3CCOC3)cc2)c(C(F)(F)F)[nH]c1=O (stereo not drawn) [Example 231, 2-oxo-5-(4-((tetrahydrofuran-3-yl)methoxy)phenyl)-6-(trifluoromethyl)-1,2-dihydropyridine-3-carboxamide] | 100 to 1000 | 1000 to 5000 |  |  | 
14 | NC(=O)c1cc(-c2cccc(NC=O)c2)c(C(F)(F)F)[nH]c1=O [Example 10, 5-(3-formamidophenyl)-2-oxo-6-(trifluoromethyl)-1,2-dihydropyridine-3-carboxamide] |  |  |  | 1000 to 5000 | 1000 to 5000
15 | NC(=O)c1cc(-c2ccc(OCc3ccc(F)c(F)c3)cc2)c(C(F)(F)F)[nH]c1=O [Example 112, 5-(4-((3,4-difluorobenzyl)oxy)phenyl)-2-oxo-6-(trifluoromethyl)-1,2-dihydropyridine-3-carboxamide] |  |  |  | 100 to 1000 | 10 to 100
16 | CC(=O)N1CCOC(COc2ccc(-c3cc(C(N)=O)c(=O)[nH]c3C(F)(F)F)cc2)C1 (stereo not drawn) [Example 188, 5-(4-((4-acetylmorpholin-2-yl)methoxy)phenyl)-2-oxo-6-(trifluoromethyl)-1,2-dihydropyridine-3-carboxamide] |  |  |  | 1000 to 5000 | 

Row | Compound | IC50 [1] [nM] | IC50 [2] [nM] | IC50 [3] [nM] | IC50 [4] [nM] | IC50 [5] [nM]
17 | Cn1ncc2c(COc3ccc(-c4cc(C(N)=O)c(=O)[nH]c4C(F)(F)F)cc3)cccc21 [Example 132, 5-(4-((1-methyl-1H-indazol-4-yl)methoxy)phenyl)-2-oxo-6-(trifluoromethyl)-1,2-dihydropyridine-3-carboxamide] |  |  |  | 1000 to 5000 | 5000 to 10000
18 | COC[C@H]1COC[C@@H](COc2ccc(-c3cc(C(N)=O)c(=O)[nH]c3C(F)(F)F)cc2)O1 [Example 398, 5-(4-(((2S,6S)-6-(methoxymethyl)-1,4-dioxan-2-yl)methoxy)phenyl)-2-oxo-6-(trifluoromethyl)-1,2-dihydropyridine-3-carboxamide] | 10 to 100 | 10 to 100 |  |  | 
19 | COCC(Oc1ccc(-c2cc(C(N)=O)c(=O)[nH]c2C(F)(F)F)cc1)c1cccnc1 (stereo not drawn) [Example 186, 5-(4-(2-methoxy-1-(pyridin-3-yl)ethoxy)phenyl)-2-oxo-6-(trifluoromethyl)-1,2-dihydropyridine-3-carboxamide] |  |  |  | 1000 to 5000 | 1000 to 5000
20 | NC(=O)c1cc(-c2ccc(OCC3COCC4(COC4)N3)cc2)c(C(F)(F)F)[nH]c1=O (stereo not drawn) [Example 205, 5-(4-((2,8-dioxa-5-azaspiro[3.5]nonan-6-yl)methoxy)phenyl)-2-oxo-6-(trifluoromethyl)-1,2-dihydropyridine-3-carboxamide] |  |  |  | 1000 to 5000 | 10000 to 25000
21 | NC(=O)c1cc(-c2ccc(OCc3ccc(C(F)(F)F)cc3)cc2)c(C(F)(F)F)[nH]c1=O [Example 87, 2-oxo-6-(trifluoromethyl)-5-(4-((4-(trifluoromethyl)benzyl)oxy)phenyl)-1,2-dihydropyridine-3-carboxamide] |  |  |  | 100 to 1000 | 5000 to 10000
22 | NC(=O)c1cc(-c2ccc(OCc3ccon3)cc2)c(C(F)(F)F)[nH]c1=O [Example 223, 5-(4-(isoxazol-3-ylmethoxy)phenyl)-2-oxo-6-(trifluoromethyl)-1,2-dihydropyridine-3-carboxamide] | 100 to 1000 | 1000 to 5000 |  |  | 
23 | NC(=O)c1cc(-c2ccc(CN3CCOCC3)cc2)c(C(F)(F)F)[nH]c1=O [Example 1, 5-(4-(morpholinomethyl)phenyl)-2-oxo-6-(trifluoromethyl)-1,2-dihydropyridine-3-carboxamide] |  |  | 100 to 1000 | 100 to 1000 | 1000 to 5000
24 | NC(=O)c1cc(-c2ccc(OCc3cnc(N4CCOCC4)nc3)cc2)c(C(F)(F)F)[nH]c1=O [Example 122, 5-(4-((2-morpholinopyrimidin-5-yl)methoxy)phenyl)-2-oxo-6-(trifluoromethyl)-1,2-dihydropyridine-3-carboxamide] |  |  |  | 100 to 1000 | 10000 to 25000
25 | NC(=O)c1cc(-c2ccc(CN3CCOCC3)cc2F)c(C(F)(F)F)[nH]c1=O [Example 42, 5-(2-fluoro-4-(morpholinomethyl)phenyl)-2-oxo-6-(trifluoromethyl)-1,2-dihydropyridine-3-carboxamide] |  |  |  | 1000 to 5000 | 10000 to 25000
26 | Cc1ccc(-c2cc(C(N)=O)c(=O)[nH]c2C(F)(F)F)cc1 [Example 26, 2-oxo-5-(p-tolyl)-6-(trifluoromethyl)-1,2-dihydropyridine-3-carboxamide] |  |  | 5000 to 10000 |  | 
27 | NC(=O)c1cc(-c2cccc(CO)c2)c(C(F)(F)F)[nH]c1=O [Example 25, 5-(3-(hydroxymethyl)phenyl)-2-oxo-6-(trifluoromethyl)-1,2-dihydropyridine-3-carboxamide] |  |  | 5000 to 10000 |  | 
28 | CN1C(COc2ccc(-c3cc(C(N)=O)c(=O)[nH]c3C(F)(F)F)cc2)COCC12COC2 (stereo not drawn) [Example 206, 5-(4-((5-methyl-2,8-dioxa-5-azaspiro[3.5]nonan-6-yl)methoxy)phenyl)-2-oxo-6-(trifluoromethyl)-1,2-dihydropyridine-3-carboxamide] |  |  |  | 100 to 1000 | 5000 to 10000
29 | NC(=O)c1cc(-c2ccc(OCc3cccc4nonc34)cc2)c(C(F)(F)F)[nH]c1=O [Example 74, 5-(4-(benzo[c][1,2,5]oxadiazol-4-ylmethoxy)phenyl)-2-oxo-6-(trifluoromethyl)-1,2-dihydropyridine-3-carboxamide] |  |  |  | 100 to 1000 | 100 to 1000
30 | CS(=O)(=O)c1ccc(COc2ccc(-c3cc(C(N)=O)c(=O)[nH]c3C(F)(F)F)cc2)cc1 [Example 133, 5-(4-((4-(methylsulfonyl)benzyl)oxy)phenyl)-2-oxo-6-(trifluoromethyl)-1,2-dihydropyridine-3-carboxamide] |  |  |  | 1000 to 5000 | 10000 to 25000
31 | NC(=O)c1cc(-c2ccc(OCc3ccc(C(F)(F)F)nc3)cc2)c(C(F)(F)F)[nH]c1=O [Example 111, 2-oxo-6-(trifluoromethyl)-5-(4-((8-(trifluoromethyl)pyridin-3-yl)methoxy)phenyl)-1,2-dihydropyridine-3-carboxamide] |  |  |  | 100 to 1000 | 1000 to 5000
32 | NC(=O)c1cc(-c2ccc(OCc3ccccc3)cc2)c(C(F)(F)F)[nH]c1=O [Example 4, 5-(4-(benzyloxy)phenyl)-2-oxo-6-(trifluoromethyl)-1,2-dihydropyridine-3-carboxamide] |  |  | 100 to 1000 | 100 to 1000 | 1000 to 5000

Read-outs that look alike come from different tables or passages of the source.
